{"source": "patent US20110044991A1", "about": "“METHODS AND COMPOSITIONS FOR TREATING LYMPHOMA AND MYELOMA” (IRM LLC, priority 2006, published 2011)", "key": {"[1]": {"test_system": "bone marrow stroma cells from Cdkn2a−/− mice", "details": "cyclopamine 5 μM, 48 h, light microscopy", "description": "(§1) In order to investigate whether the Hh signalling pathway does indeed contribute to the survival and proliferation of lymphoma cells growing on an intact stromal layer, lymphoma cells were luciferased using a retrovirus expressing a puromycin/Luc fusion cassette. 2×10E4 lymphoma cells constitutively expressing luciferase were added to each 96-well containing a stromal layer (not expressing luciferase) isolated from Cdkn2a^−/− mice. A total of 34 individual Eμ-Myc-lymphomas and 8 Cdkn2a-lymphomas were tested. A luciferase assay was performed as a readout for cell viability and proliferation and results were also documented by light microscopy."}, "lymphoma cells (Ly9)": {"test_system": "lymphoma cells (Ly9)", "details": "50 mg/kg twice a day for 3 days, start 10 days after injection; vs control group", "description": "D: injection of 1 Mio luciferased lymphoma cells in C57B16 mice.\nImmunohistochemistry: Single colour DAB-immunoperoxidase staining was performed as described. Antibodies were obtained from Santa Cruz Biotechnologies (for Shh antibody, N-19), NeoMarkers (for Ki67 antibody) and Promega (for PARP antibody).\nMouse experiments: Black6 mice between 6 and 8 weeks of age were injected with 1 Mio luciferased lymphoma cells. […] Bioluminescence was measured with injection of […].\nWe next wished to determine the importance of Hh signalling in established lymphomas."}, "Eμ-Myc lymphoma cells": {"test_system": "Eμ-Myc lymphoma cells", "experiment": "Luciferase assay and light microscopy of luciferased lymphoma cells on stromal layer", "assay_type": "cell-based, mouse", "details": "Myc-Ly6; 48 hours; 0, 0.5, 1, 5 and 10 μM", "description": "For Shh pathway inhibition on stroma, 6200 stroma cells were seeded per 96-well. After 24 hours 20,000 luciferased lymphoma cells were seeded on the stroma cells and 2 hours later compound or DMSO was added. Luciferase assay was performed with Bright-glow reagent as described. To generate cells overexpressing Hh pathway members, lymphoma cells were infected with Smo, Smo 535, Smo 562, Gli1 and Fused-pMSCV IRES GFP constructs and then sorted for GFP positive cells.\nas §1"}, "[2]": {"test_system": "Myc lymphoma cells (p53−/−, Cdkn2a−/−, Bcl2+, Bax−/−, Caspase3−/−)", "details": "5 μM, 48 h", "source_text": "Genetically altered mice and culture of primary cells: Eμ-Myc mice (Adams et al., Nature 318: 533-53824, 1985), Cdkna^−/− mice (Serrano et al., Cell. 85:27-3725, 1996), Bax^−/− mice (The Jackson Laboratory, Bar Harbor, Me.), Caspase3^−/− mice (The Jackson laboratory), p53^−/− mice (The Jackson Laboratory) and Bcl2 tg mice (The Jackson laboratory) were maintained and genotyped as described. Eμ-Myc mice and Cdkn2a−/− mice were monitored for signs of disease including development of visible lymphomas or weight loss from more than 15%. Mice with terminal disease were sacrificed, bone marrow, spleen and lymph nodes were extracted and lymphoma cells were propagated under Witlock/Witte culture conditions. For maintained growth cells were transferred on bone marrow stroma from Cdkn2a−/− mice after 2-3 weeks of culture. For generation of lymphomas with defined genetic background, bone marrow from p53−/− mice, Caspase3−/− mice, Bax−/− mice, Cdkn2a−/− mice and Bcl2 tg mice was extracted and pMSCV c-Myc IRES GFP was overexpressed. Propagation of transformed lymphocytes was performed under Witlick/Witte culture conditions and lymphomas were maintained on stroma from Cdkn2a−/− mice. […]"}}, "data": [{"smiles": "CC1=C2C[C@H]3[C@@H](CC=C4C[C@@H](O)CC[C@@]43C)[C@@H]2CC[C@]12O[C@@H]1C[C@H](C)CN[C@H]1[C@H]2C", "note": "[cyclopamine]", "values": [{"measurement": "growth and survival of the stromal layer", "setting": "[1]", "result": "not affected"}, {"measurement": "light emission from mice", "setting": "lymphoma cells (Ly9)", "result": "significantly reduced"}, {"measurement": "luciferase activity (viable lymphoma cells)", "setting": "Eμ-Myc lymphoma cells", "result": "reduced in a dose dependant manner"}, {"measurement": "viable cells", "setting": "[2]", "result": "no reduction of viable cells"}]}]}
